Source: PubChem BioAssay AID693 (University of Pittsburgh Molecular Library Screening Center, 2007)
The list shows a part of the results, in another mix than the full data. Active and inactive are the calls of the source. Rule as the data show it: active = inhibition above about 34% (passing the limit was not always enough); inactive = the rest.

Chains of the proteins cited; added tags and fusions are not shown.
UniProt P53350, whole entry, looked up: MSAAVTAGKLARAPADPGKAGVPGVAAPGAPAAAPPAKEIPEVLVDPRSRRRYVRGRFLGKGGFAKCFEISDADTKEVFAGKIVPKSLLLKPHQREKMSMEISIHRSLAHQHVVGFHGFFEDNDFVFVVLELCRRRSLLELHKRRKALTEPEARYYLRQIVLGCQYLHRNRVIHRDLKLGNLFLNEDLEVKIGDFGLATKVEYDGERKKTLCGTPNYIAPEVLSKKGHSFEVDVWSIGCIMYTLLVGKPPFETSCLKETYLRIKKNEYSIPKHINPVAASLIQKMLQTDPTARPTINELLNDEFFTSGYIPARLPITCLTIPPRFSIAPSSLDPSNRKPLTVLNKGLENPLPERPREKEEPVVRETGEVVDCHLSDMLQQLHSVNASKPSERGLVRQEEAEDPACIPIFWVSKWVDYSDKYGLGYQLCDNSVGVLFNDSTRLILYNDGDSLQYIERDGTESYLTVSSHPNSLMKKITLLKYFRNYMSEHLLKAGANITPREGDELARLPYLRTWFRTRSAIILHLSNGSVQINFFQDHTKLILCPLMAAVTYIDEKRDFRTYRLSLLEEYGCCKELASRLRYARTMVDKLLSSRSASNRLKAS

Biological target: Serine/threonine-protein kinase PLK1 (Homo sapiens) (UniProt P53350)
Assay: blockers of phosphopeptide binding to Plk1 PBD – biochemical, fluorescence polarization, primary screen (AID 693)
Conditions: active compounds read high,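 tested at about 20 µM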

| Structure (SMILES) | inhibition |
| --- | --- |
| CC(=O)N1C2C3N(C(C)=O)C1C1N(C(C)=O)C(C(N1C(C)=O)N3C(C)=O)N2C(C)=O | inactive: 2.66% |
| O=[N+]([O-])c1cccc2n[nH]nc12 | inactive: -8.71% |
| CCc1nc2c(n1)c1c(non1O)c1c2no[n+]1[O-] | inactive: 27.1% |
| CC1CCN(C(=O)Oc2c(Cl)cc(Cl)c3cccnc23)CC1 | inactive: 14.8% |
| CCOP(=O)(Nc1ccccc1)OCC | inactive: 13.6% |
| CN1CCCC(OC(=O)C(c2ccccc2)c2ccccc2)C1 (stereo not drawn) | inactive: 8.39% |
| CC(C)CC(=O)NC(Sc1ccc(Cl)cc1)C(Cl)(Cl)Cl (stereo not drawn) | inactive: -2.08% |
| Cc1c2non([O-])c-2c(C)[n+](=O)[n+]1[O-] | inactive: 1.32% |
| Oc1ccccc1CNc1ccccn1 | inactive: -20.8% |
| O=P1(Nc2nc3ccc(Cl)cc3s2)COc2ccccc2O1 (stereo not drawn) | inactive: 6.58% |
| CCOC(=O)NC(Sc1ccccc1)C(Cl)(Cl)Cl (stereo not drawn) | inactive: 6.5% |
| COC(=O)c1cc2c(s1)N=C(c1ccccc1)N(C)P2(=O)N1CCOCC1 (stereo not drawn) | inactive: -24.6% |
| CCC(=O)N1C2C3N(C(=O)CC)C1C1N(C(=O)CC)C(C(N1C(=O)CC)N3C(=O)CC)N2C(=O)CC | inactive: -18.9% |
| O=C(OC1CN2CCC1CC2)c1cccc(Cl)c1 (stereo not drawn) | inactive: 27.5% |
| c1nnnn1CCn1cnnn1 | inactive: 10.5% |
| O=P(Nc1nccs1)(c1ccccc1)c1ccccc1 | inactive: -5.69% |
| Clc1n[nH]nc1-c1nn[nH][15n]1 | inactive: -14.1% |

| Structure (SMILES) | inhibition |
| --- | --- |
| O=P1(Nc2ccccn2)COc2ccccc2OC1 | inactive: -9.5% |
| CC1(CBr)Cn2c(nc3ccccc3c2=O)S1 (stereo not drawn) | inactive: 16.5% |
| Cc1nn(-c2ccccc2)c2c1P(=O)(N1CCOCC1)N(C)C(c1ccccc1)=N2 (stereo not drawn) | inactive: 7.13% |
| Cc1ccc(OCC(=O)OC2CN3CCC2CC3)cc1 (stereo not drawn) | inactive: -6.02% |
| O=P1(Nc2ccc(Br)cn2)COc2ccccc2OC1 | inactive: -22.5% |
| O=P1(Nc2ncccn2)COc2ccccc2OC1 | inactive: -29% |
| CCOP1(=S)c2c(C)nn(CCC#N)c2N=C(c2ccccc2F)N1C (stereo not drawn) | inactive: -16.2% |
| O=[N+]([O-])c1ccc2c(c1)nnn2O | inactive: 13.2% |
| CCOP1(=S)c2c(C)nn(CCC#N)c2N=C(c2ccc(F)cc2)N1C (stereo not drawn) | inactive: -22.2% |
| Cc1cccc(OCC(=O)OC2CN3CCC2CC3)c1 (stereo not drawn) | inactive: 0.41% |
| O=C(OC1CN2CCC1CC2)C12CC3CC(CC(C3)C1)C2 (stereo not drawn) | inactive: -4.07% |
| CCN(CC)C(=S)SC(NC=O)C(Cl)(Cl)Cl (stereo not drawn) | inactive: 3.08% |
| ClCCSc1nnc(-c2cccnc2)o1 | inactive: 34.3% |
| O=C(COc1ccccc1)OC1CN2CCC1CC2 (stereo not drawn) | inactive: -8.11% |
| COP1(=S)c2c(C)nn(CCC#N)c2N=C(c2ccc(F)cc2)N1C (stereo not drawn) | inactive: -18% |
| CCC(C)N(CC(C)C)C(=S)SC(NC(C)=O)C(Cl)(Cl)Cl (stereo not drawn) | inactive: -16.4% |
